Laboratory results: ChEMBL document CHEMBL1141644, “Development of CXCR3 antagonists. Part 4: discovery of 2-amino-(4-tropinyl)quinolines” (Bioorg Med Chem Lett, 2008)

Organism: Homo sapiens
Assay: Protein binding in human plasma
Conditions: read-out: PPB (converted)

Row | fraction unbound | SMILES
1 | 0.033 | CC(=O)N1C2C=C(CN3[C@@H]4CC[C@H]3C[C@H](Nc3ccc5ccc(OC(C)C)cc5n3)C4)CC1CCC2
2 | 0.016 | CC(=O)N1C2C=C(CN3[C@@H]4CC[C@H]3C[C@H](Nc3ccc5cc(C(F)(F)F)ccc5n3)C4)CC1CCC2
3 | 0.027 | CC(=O)N1C2C=C(CN3CCC(Nc4ccc5ccc(C(F)(F)F)cc5n4)CC3)CC1CCC2 (centres undefined)
4 | 0.045 | CC(=O)N1C2C=C(CN3CCC(Nc4ccc5cc(OC(F)(F)F)ccc5n4)CC3)CC1CCC2 (centres undefined)
